# Screening data deposited in PubChem BioAssay by Broad Institute.
# Rows were chosen to be rich in hits. Some 1.2% of all compounds tested hit in one or more screens of this group.
# miR-122 sensor: blocks miR-122 activity in Huh7 sensor cells; AID 602342; Huh7 miR-122 Renilla luciferase sensor, 48 h; neutral wells = 0, positive control = 100; activation (reporter increase), % at 12.5 µM; actives 0.3% (n = 340,000);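 active = mean replicate activation score at least 90 and every replicate individually at or above 90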;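 also: higher luciferase means less miR-122 activity so hits act as miR-122 inhibitors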
# Glyco luc inh: N-linked glycosylation inhibition. D54 ERlucT glycosylation luciferase reporter, 24 h; percent of 100 nM tunicamycin response. reporter increase, % at 12.5 µM. actives 0.23% (n = 360,000);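 active = mean luciferase reporter signal, scaled so untreated is 0 and the glycosylation-blocking control 100, at or above a set limit in every replicate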;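 also: luciferase carries N-glycosylation sites so blocking glycosylation raises the light; 0% = median of neutral control wells and 100% = median of 100 nM tunicamycin wells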
# Cneo AK release: Cryptococcus neoformans lysis via adenylate kinase release; C. neoformans lysis, adenylate kinase release luminescence, 4 h; normalised: neutral wells 0, clomiphene wells 100; lysis activity, % at 15 µM; actives 0.2% (n = 360,000);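 active = mean lysis activity across replicates of at least 80%, whatever share of replicates individually reach that level; inactive = mean lysis activity below 80%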
#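 Signal: Adenylate kinase release luminescence | Assay system: Log-phase Cryptococcus neoformans yeast cells | Input: Cells at 5 × 10^6 per mL | Buffer or medium: Fresh YPD growth medium | Compound: Single dose | Schedule: Static 4 h at 37 °C with compound, 1 h detection | Controls: Clomiphene | Read-out: Luminescence rise reflecting yeast cell lysis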
# C2C12 statin: suppression of simvastatin myotoxicity. C2C12 myotubes + simvastatin, ATP luminescence, 48 h; scaled: DMSO 0, geranylgeraniol control 100. rescue of ATP level, % at 7.49 µM. actives 0.78% (n = 330,000);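 active = mean ATP rescue above about 67%, or every replicate alone reaching that limit, limit read from the data, passing the limit was not always enough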;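 also: myotubes were challenged with 10 µM simvastatin during compound exposure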
# UUG fidelity: modulators of start codon recognition fidelity in yeast; S. cerevisiae UUG-firefly luciferase reporter, luminescence/redox ratio; activity score, % at 18.7 µM; hit rate 0.13% among 350,000; AID 602363;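 active = replicate mean at a twofold rise or more, about +100% in these data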;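 note: firefly luciferase made from a UUG start codon reports start codon fidelity; reporter light over untreated wells divided by growth signal over untreated wells; some hits fall short of that in this replicate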
# Numbers without * were called inactive; . = no result given; [ ] = another dose, or the depositor's remark.
# Values run as follows: miR-122 sensor, Glyco luc inh, Cneo AK release, C2C12 statin, UUG fidelity
[1] NCCCNc1nc(N)c([N+](=O)[O-])c(NC2CCCCC2)n1
    ., -15.5, -0.3, 104.6*, -2.3
[2] c1ccc(-c2cc(N3CCCCCC3)n[nH]2)cc1
    1.0, -1.6, 1.5, 93.3*, 2.0
[3] CCCCOC(=O)CSc1nc(N)c(C#N)c(-c2ccc(OC)cc2)c1C#N
    -3.7, 2.6, -1.3, 90.2*, -15.2
[4] COc1cccc(CNC(=O)[C@@H]2[C@@H](CO)[C@@H]3Cn4c(ccc(C5=CCCCC5)c4=O)[C@H]2N3)c1
    -0.9[16.7 µM], ., -0.3, 19.3, .
[5] O=C1C(=C(c2ccccc2)c2ccccc2)Nc2ccccc21
    -13.1, 7.9, -0.6, 99.6*, -24.7
[6] C[C@H](CO)N1C[C@H](C)[C@H](CN(C)Cc2ccc(-c3ccccc3)cc2)Oc2ccc(NC(=O)C3CC3)cc2CC1=O
    -7.4[16.7 µM], ., -1.5, 26.9, 9.3
[7] C[C@H]1CN([C@@H](C)CO)C(=O)Cc2cc(NC(=O)C3CC3)ccc2O[C@H]1CN(C)Cc1ccc(-c2ccccc2)cc1
    0.8[16.7 µM], ., 112.0*, 44.0, 41.9
[8] C[C@@H]1CN([C@@H](C)CO)C(=O)Cc2cc(NC(=O)C3CCCCC3)ccc2O[C@H]1CN(C)Cc1ccc(-c2ccccc2)cc1
    -33.0[16.7 µM], ., -2.4, 136.7*, 22.3
[9] CCS(=O)(=O)Nc1ccc2c(c1)C(=O)N(C)C[C@@H](OC)[C@H](C)CN(C(=O)NC(C)C)[C@@H](C)CO2
    -4.4[16.7 µM], ., 1.5, -11.0, -1.1
[10] COC(=O)c1[nH]c2ccc(C)cc2c1NC(=O)CN1CCN(c2ccccc2)CC1
    ., -4.9, ., ., .
[11] COC(=O)c1[nH]c2ccc(C)cc2c1NC(=O)CN1CCN(C(=O)c2ccccc2)CC1
    -6.5, -1.2, 0.7, 96.3*, 0.3
[12] O=C(N[C@@H]1CC[C@H](CCNS(=O)(=O)c2ccccc2)O[C@@H]1CO)c1cccnc1
    ., ., -3.0, -10.0, -9.6
[13] O=S(=O)(NC[C@@H]1[C@H](c2ccccc2)[C@H](CO)N1CC1CC1)c1ccccc1
    21.4[16.7 µM], ., -0.8, 2.1, 17.8
[14] O=S(=O)(NC[C@@H]1[C@@H](c2ccccc2)[C@H](CO)N1CC1CC1)c1ccccc1
    42.9[16.7 µM], ., 107.2*, 7.2, 19.6
[15] O=S(=O)(NCC1CCN(c2ccc(S(=O)(=O)N3CCOCC3)cc2)CC1)c1ccccc1
    ., -1.0, 3.0, 3.3, -0.6
[16] O=S(=O)(NCC1CCN(S(=O)(=O)c2ccccc2)CC1)c1ccccc1
    27.7, -1.6, -1.4, 136.5*, 2.6
[17] CNC[C@H]1Oc2ccc(NS(=O)(=O)c3cn(C)cn3)cc2C(=O)N([C@@H](C)CO)C[C@H]1C
    3.9[16.7 µM], ., -5.6, -30.9, 6.3
[18] O=C(O)/C=C1\NC(=O)c2ccccc21
    -0.4, 1.1, -1.5, 103.5*, -3.6
[19] COc1cc(NC(=O)C2(C)CCN2C(C)C)cc(OC)c1OC (stereo not drawn)
    -5.9, 0.4, 0.0, 9.7, -10.0
[20] CCCSc1nc(N)c2c3c(sc2n1)CN(C)CC3
    -3.2, -3.5, 2.7, 99.3*, -20.3
[21] O=C(C[C@@H]1CC[C@H]2[C@@H](COC[C@@H](O)CN2C(=O)Nc2ccc(Cl)cc2)O1)NCCc1ccncc1
    3.4[16.7 µM], ., 99.7*, -22.8, .
[22] O=C(C[C@H]1CC[C@H]2[C@@H](COC[C@H](O)CN2C(=O)Nc2ccc3c(c2)OCO3)O1)N1CCN(c2ccccc2)CC1
    3.5[16.7 µM], ., 90.9*, -5.8, .
[23] O=C(C[C@H]1CC[C@H]2[C@@H](COC[C@@H](O)CN2C(=O)Nc2ccc(Cl)cc2)O1)N1CCCCC1
    28.3[16.7 µM], ., 87.4*, -18.2, 19.3
[24] C[C@@H]1CN([C@H](C)CO)C(=O)c2cccc(NS(C)(=O)=O)c2O[C@@H]1CN(C)C(=O)Nc1ccccc1
    28.8[16.7 µM], ., -0.9, -15.3, -15.6
[25] O=C(C[C@H]1C[C@@H]2c3cc(NC(=O)CC4CC4)ccc3O[C@@H]2[C@@H](CO)O1)NCC1CC1
    -3.0[16.7 µM], ., 7.1, 4.5, .
[26] COCC#Cc1ccc2c(c1)O[C@@H](CN(C)Cc1cncnc1)[C@H](C)CN([C@H](C)CO)S2(=O)=O
    18.6[16.7 µM], ., 0.3, ., 5.2
[27] C[C@@H]1CN([C@H](C)CO)S(=O)(=O)c2ccc(C#Cc3ccc(F)cc3)cc2O[C@@H]1CN(C)C
    1.8[16.7 µM], ., 1.8, -11.7, -0.2
[28] CCn1c(=S)[nH]c2cc(Cl)ccc21
    ., 12.8, ., 8.5, .
[29] CCCn1c(=S)[nH]c2cc(Cl)ccc21
    -2.9, 3.1, 151.1*, 34.4, -22.4
[30] CCn1c2ccccc2c2cc(NC(=O)COC(=O)c3ccccc3O)ccc21
    ., 8.0, ., ., .

# Part of the list above, field by field.
27	C[C@@H]1CN([C@H](C)CO)S(=O)(=O)c2ccc(C#Cc3ccc(F)cc3)cc2O[C@@H]1CN(C)C
  miR-122 sensor = 1.8[16.7 µM]
  Glyco luc inh = .
  Cneo AK release = 1.8
  C2C12 statin = -11.7
  UUG fidelity = -0.2
14	O=S(=O)(NC[C@@H]1[C@@H](c2ccccc2)[C@H](CO)N1CC1CC1)c1ccccc1
  miR-122 sensor = 42.9[16.7 µM]
  Glyco luc inh = .
  Cneo AK release = 107.2*
  C2C12 statin = 7.2
  UUG fidelity = 19.6
17	CNC[C@H]1Oc2ccc(NS(=O)(=O)c3cn(C)cn3)cc2C(=O)N([C@@H](C)CO)C[C@H]1C
  miR-122 sensor = 3.9[16.7 µM]
  Glyco luc inh = .
  Cneo AK release = -5.6
  C2C12 statin = -30.9
  UUG fidelity = 6.3

# Next section
# Values run as follows: miR-122 sensor, Glyco luc inh, Cneo AK release, C2C12 statin, UUG fidelity
[31] CCn1c2ccccc2c2cc(NC(=O)COC(=O)c3cc(S(N)(=O)=O)c(Cl)cc3Cl)ccc21
    ., 40.5*, ., ., .
[32] CCOc1cccc(CNc2ccc(O)cc2)c1OCc1ccccc1Cl
    -8.4, 7.8, -1.1, 108.0*, -12.0
[33] Cc1cc(=O)n2c(C)n[nH]c2n1
    0.8, -0.2, 0.6, 120.5*, -14.8
[34] Cc1cc(NC(=O)c2ccc(Cl)c(S(=O)(=O)N3CCOCC3)c2)no1
    0.9, 1.1, -1.8, 127.9*, -11.1
[35] Cc1ccnc(NC(=O)c2cccc(S(=O)(=O)N3CCOCC3)c2)c1
    3.2, -4.3, 1.0, -7.3, -6.3
[36] COc1ccc(S(=O)(=O)N2CCOCC2)cc1NC(=O)CSc1ncccn1
    -6.1, 0.7, 2.2, 109.5*, -23.1
[37] O=C(Nc1ccccn1)c1cccc(S(=O)(=O)N2CCOCC2)c1
    159.8*, 0.4, 1.1, -7.7, -0.2
[38] COc1ccc(S(=O)(=O)N2CCCCC2)cc1NC(=O)CSc1ncccn1
    ., -3.1, -0.9, 1.6, 1.8
[39] COc1ccccc1NC1=NCC(=O)N1Cc1ccccc1
    1.4, 1.8, -4.1, 88.1*, -5.8
[40] c1ccc2c(c1)CCOC2CNCCCN1CCCCC1 (stereo not drawn)
    5.7, -1.2, 2.0, 90.7*, 1.3
[41] O=S(=O)(NCC1OCCc2ccccc21)c1ccc(S(=O)(=O)N2CCOCC2)cc1 (stereo not drawn)
    7.7, 0.0, -1.3, 12.6, 12.4
[42] COC(=O)CSc1nc(C2CC2)cc(C(F)(F)F)c1C#N
    3.8, -2.7, 1.2, 99.0*, -13.4
[43] COc1ccc2oc(=O)c(-c3nnc(NCc4ccco4)s3)cc2c1
    -3.2, 15.6, -0.3, 103.5*, -19.2
[44] Cc1ccsc1C1Nc2ccc3ncccc3c2C2=C1C(=O)CC(C)(C)C2 (stereo not drawn)
    95.3*, 11.5, 0.1, 31.9, -9.1
[45] O=C1CCCC2=C1C(c1cccs1)Nc1ccc3ncccc3c12 (stereo not drawn)
    -2.6, 8.5, -4.1, 139.1*, -10.5
[46] COc1ccc(CN(C)C[C@@H]2OCCCC[C@@H](C)Oc3ccc(NC(=O)c4ccncc4)cc3C(=O)N([C@@H](C)CO)C[C@H]2C)cc1
    4.2[16.7 µM], ., 4.0, ., 7.7
[47] O=C1C=C(c2cccs2)C[C@H](c2ccccc2)[C@H]1n1nnc([N+](=O)[O-])n1
    ., 25.5*, ., ., .
[48] CC(=O)C1C(=O)C=C(c2cccs2)CC1c1ccccc1 (stereo not drawn)
    -0.1, -1.5, 2.0, ., -2.4
[49] CC(NC(=O)OCc1ccccc1)c1ccccc1 (stereo not drawn)
    ., -0.5, ., ., .
